Experimental data from PubChem BioAssay AID1832 (Broad Institute, 2009).
Among all 300,000 compounds or so, about 1,100 (0.37%) were called active. The source calls these results inconclusive, neither active nor inactive.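 How the source made its calls: active means inhibition past about -25% in most replicates, and total fluorescence under double the plate's negative control median (limit read from the data); inconclusive means replicates evenly split on the limit, or fluorescence at least double controls; inactive means too little inhibition in most replicates.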

Chains of the proteins cited; added tags and fusions are not shown. Lines headed by an entry give the natural chain unless they say otherwise; changes in a name come on top.
UniProt Q9XUB2: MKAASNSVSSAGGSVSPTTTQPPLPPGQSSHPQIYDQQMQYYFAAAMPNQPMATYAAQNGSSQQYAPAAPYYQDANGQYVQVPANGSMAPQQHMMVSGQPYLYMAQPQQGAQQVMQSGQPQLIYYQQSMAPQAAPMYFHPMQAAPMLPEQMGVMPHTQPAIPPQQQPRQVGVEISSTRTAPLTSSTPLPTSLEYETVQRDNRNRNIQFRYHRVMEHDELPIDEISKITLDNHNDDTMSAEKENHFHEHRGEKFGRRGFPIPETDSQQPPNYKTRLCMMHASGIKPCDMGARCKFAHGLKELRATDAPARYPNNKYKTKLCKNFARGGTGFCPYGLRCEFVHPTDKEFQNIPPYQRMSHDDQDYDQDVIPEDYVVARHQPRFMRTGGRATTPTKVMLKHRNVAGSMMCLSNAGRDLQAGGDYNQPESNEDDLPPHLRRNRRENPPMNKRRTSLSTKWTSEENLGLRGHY

The compounds below were run against Zinc finger protein mex-5 (Caenorhabditis elegans) (UniProt Q9XUB2) (assay: MEX-5 zinc finger RNA-binding disruptors – biochemical, C. elegans, fluorescence polarization, MLPCN library, primary screen (AID 1832;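 further: 0% = DMSO and -100% = 5 µM competing unlabeled TCR2 RNA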)). Conditions: MEX-5/FITC-TCR2 RNA binding, at 10 µM, stronger effect = lower value.

| Compound | activity score (negative = inhibition of binding) |
| --- | --- |
| Nc1cccc2c([As](=O)(O)O)cccc12 | inconclusive: -25.4% |
